Data on four molecules can be found in patent publication US20250263426A1, “PDE4B INHIBITOR AND USE THEREOF” (Xizang Haisco Pharmaceutical Co., Ltd., priority 2022, published 2025).

By UniProt entry, the sequences of proteins in these tests, tags left out. Chains listed by the source or under a name are the forms on record and can include a tag or linker. Residues count along the entry.
UniProt Q08499, 303-809 limits assumed: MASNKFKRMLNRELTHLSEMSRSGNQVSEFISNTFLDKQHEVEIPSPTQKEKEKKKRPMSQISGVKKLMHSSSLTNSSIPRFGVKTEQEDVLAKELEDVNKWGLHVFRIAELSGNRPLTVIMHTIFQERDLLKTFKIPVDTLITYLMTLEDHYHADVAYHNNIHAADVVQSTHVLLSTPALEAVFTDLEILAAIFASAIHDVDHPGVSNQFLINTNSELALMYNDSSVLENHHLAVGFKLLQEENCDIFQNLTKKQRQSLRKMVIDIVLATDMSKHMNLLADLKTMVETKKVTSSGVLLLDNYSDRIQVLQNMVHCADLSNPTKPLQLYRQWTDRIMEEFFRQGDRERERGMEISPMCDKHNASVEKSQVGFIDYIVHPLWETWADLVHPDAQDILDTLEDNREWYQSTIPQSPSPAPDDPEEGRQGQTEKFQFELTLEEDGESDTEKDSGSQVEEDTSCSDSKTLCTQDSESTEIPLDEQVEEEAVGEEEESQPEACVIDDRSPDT
UniProt Q07343, 212-736 with tags or gaps limits assumed: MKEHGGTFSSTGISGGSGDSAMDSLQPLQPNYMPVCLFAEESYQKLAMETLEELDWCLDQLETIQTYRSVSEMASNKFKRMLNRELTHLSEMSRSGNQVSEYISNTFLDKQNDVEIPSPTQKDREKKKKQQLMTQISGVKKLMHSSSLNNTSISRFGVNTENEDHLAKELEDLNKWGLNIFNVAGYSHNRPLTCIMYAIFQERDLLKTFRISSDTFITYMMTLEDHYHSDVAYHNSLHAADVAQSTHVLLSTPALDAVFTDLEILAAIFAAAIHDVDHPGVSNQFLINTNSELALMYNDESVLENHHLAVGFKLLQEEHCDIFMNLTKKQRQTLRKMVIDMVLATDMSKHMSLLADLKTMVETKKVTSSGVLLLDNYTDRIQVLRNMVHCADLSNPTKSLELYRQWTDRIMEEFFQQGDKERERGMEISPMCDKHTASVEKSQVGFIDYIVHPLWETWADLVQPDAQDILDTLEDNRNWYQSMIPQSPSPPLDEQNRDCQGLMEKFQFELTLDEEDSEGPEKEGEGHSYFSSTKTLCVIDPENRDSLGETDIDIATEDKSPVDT

One assay concerns the target PDE4D2 (Homo sapiens (Human), UniProt Q08499). In words: Effect of compounds on PDE4D2 activity (fluorescence polarization kit). The class given is biochemical. The note with it: read-out: PDE4D2 IC50. For orientation: In fluorescence polarisation assays a small probe gives low polarisation when free and higher when bound to something large.
The target in another assay is PDE4B2 (Homo sapiens (Human), UniProt Q07343). The experiment in a line: Effect of compounds on PDE4B2 activity (fluorescence polarization kit). The note with it: read-out: PDE4B2 IC50.

The structures appear in SMILES notation.

For `CC(COC(N)=O)Nc1nc(N2CC=C(c3ncc(C4CC4)cn3)CC2)nc2c1[S@+]([O-])CC2` (single isomer, unassigned), the IC50 on PDE4D2 and on PDE4B2 was 10 to 50 nM in each case.
`CCOc1cnc(C2=CCN(c3nc4c(c(N5CCC(O)C56CCC6)n3)[S+]([O-])CC4)CC2)nc1` (single isomer, unassigned): the IC50 on PDE4D2 and at PDE4B2 was below 10 nM in each case.
As for `[O-][S+]1CCCc2nc(N3CC=C(c4ncc(C5CC5)cn4)CC3)nc(N3CCC(O)C34CCC4)c21` (single isomer, unassigned), the IC50 at PDE4D2 and on PDE4B2 was below 10 nM in each case.
`[O-][S+]1CCc2nc(N3CC=C(c4ncc(C5CC5)cn4)CC3)nc(N3CCC(CO)C34CCC4)c21` (single isomer, unassigned): the IC50 on PDE4D2 and at PDE4B2 was below 10 nM each time.
